According to patent US20220251105A1, “METHODS OF TREATING A MK2-MEDIATED DISORDER” (Celgene CAR LLC, priority 2019, published 2022):
“Also recorded” adds a separate entry of the source.

By UniProt entry, the sequences of proteins in these tests, tags left out.
UniProt P49137, whole entry: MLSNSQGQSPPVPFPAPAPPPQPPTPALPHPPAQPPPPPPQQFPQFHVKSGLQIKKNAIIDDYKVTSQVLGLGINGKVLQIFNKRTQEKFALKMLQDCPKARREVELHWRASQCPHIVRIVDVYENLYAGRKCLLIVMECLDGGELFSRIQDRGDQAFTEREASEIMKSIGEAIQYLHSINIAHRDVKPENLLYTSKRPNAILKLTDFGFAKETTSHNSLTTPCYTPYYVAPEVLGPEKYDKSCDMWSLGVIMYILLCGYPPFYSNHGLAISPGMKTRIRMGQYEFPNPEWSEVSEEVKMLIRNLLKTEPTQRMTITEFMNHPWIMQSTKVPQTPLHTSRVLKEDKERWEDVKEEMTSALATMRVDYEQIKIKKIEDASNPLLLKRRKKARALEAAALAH

Biological target: MK2 (Homo sapiens, UniProt P49137)
Type: binding
Design: Full-length histidine-tagged human recombinant MK2 was incubated; histidine tag
Settings: recombinant MK2, Cys140

## CCOCc1cnc(Cl)nc1Oc1ccc2c(ccc3sc4c(c32)NC[C@@H](C)NC4=O)n1 [Compound 1]
  covalent modification of MK2: formed a covalent bond with human recombinant MK2; also recorded: covalently modifies recombinant MK2 at Cys140
